## Measured affinities in a library of Ab-95 light chain variants

From the AlphaSeq antibody data of Engelhart et al. 2022 (doi:10.1038/s41597-022-01779-4), copy in the FLAb collection.

Target peptide (SARS-CoV-2 spike, HR2 region): PDVDLGDISGINAS

Ab-95 is the parent antibody, in scFv form: VH, then a 15-residue (Gly4Ser)3 linker, then VL. The heavy chain is unchanged in all variants.
VH: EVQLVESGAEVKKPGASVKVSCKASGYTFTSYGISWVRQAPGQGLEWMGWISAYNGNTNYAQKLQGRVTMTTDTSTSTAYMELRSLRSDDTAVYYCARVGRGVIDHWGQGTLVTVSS
VL: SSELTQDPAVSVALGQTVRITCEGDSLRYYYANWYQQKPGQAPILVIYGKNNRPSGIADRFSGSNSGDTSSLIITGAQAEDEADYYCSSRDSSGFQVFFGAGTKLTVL

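The library (AAYL52) carries one to three amino acid substitutions per variant, with no insertions or deletions. Affinity was read by AlphaSeq, a pooled yeast mating assay with surface-displayed partners. The frequency of each diploid, read from paired DNA barcodes, reflects how well the two displayed proteins bind. The ratio of observed to expected reads was calibrated, replicate by replicate, on BCL2-family standards whose Kd was known from biolayer interferometry. There are three technical replicates.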

Each variant is given by its three light chain CDRs, as the data file delimits them; those of the parent are EGDSLRYYYAN, GKNNRPS, SSRDSSGFQVF.
The read-out is the apparent dissociation constant on a log10 scale (nM): the lower, the stronger.
"ND" means that the variant was in the library but no mating with the target was seen in that replicate; the authors take this as a sign of poor binding, and no number exists.

CDR-L1	CDR-L2	CDR-L3	replicates, log10 nM	control signals
EGDSLRYYYAN	GKNNRPS	SSIHCSGFQVF	ND ND ND	0 of 9
EGDSLRYYYAN	GKSNRPS	SSRVSSGTQVF	2.91 2.87 3.56	3 of 9 (4.00)
EGDLLRYYYAN	GKNNRPS	GSRVSSGFQVF	4.40 3.31 ND	3 of 9 (4.12)
EGDSLRYYYAN	GKTNRPS	SSRDSSDFQVF	ND ND ND	1 of 9 (3.67)
EGDSLRYYYAA	GKNNRPS	YSRDSSGFQVQ	3.80 ND 3.26	3 of 9 (3.87)
EGDELRYYYAN	GKNNRPS	SSRDGSIFQVF	ND 4.08 ND	1 of 9 (4.22)
EGDSLRYYYAN	GKNNRSS	SSRDSSGFQVL	3.02 2.51 4.16	3 of 9 (3.42)
EGDSIRYYYAN	GKLNRPS	SSRDSSGFQVK	ND ND ND	1 of 9 (4.32)
EGDMLRYYYLN	GKNNRPF	SSRDSSGFQVF	ND ND ND	2 of 9 (4.39)
EGDSLRYYYAN	GWNNRPS	SSRNSSGFQVF	ND 3.30 ND	0 of 9
EGDWSRYYYAN	GRNNRPS	SSRDSSGFQVF	4.81 4.05 4.13	6 of 9 (3.62)
EGDPLRYYYAN	YKNNRPS	SSRDSSGFEVF	ND 4.00 2.74	2 of 9 (4.84)
ECDSLRYYYAN	GKNQRPS	SSRKSSGFQVF	2.60 2.90 2.61	3 of 9 (3.74)
EGDILRYYYAN	GKNNRPS	SSGDSSGFQVF	ND ND ND	0 of 9
EGDALRYYYGN	GKNNRPS	SSRDSSGFAVF	2.60 3.72 3.32	5 of 9 (3.86)
EGRSLNYYYAN	GKNNRPS	SSRDSSGFSVF	3.53 2.45 2.65	2 of 9 (4.49)
EGDSLRYYYAK	GKNNRPS	STRDSSGFQVK	2.87 ND ND	5 of 9 (4.03)
EGDSTRYYYAN	GKNNRPS	SSRDSSLIQVF	5.60 5.58 ND	4 of 9 (4.10)
EGDSLRYYGAN	GKNNRPS	SSYDSSGFQVW	3.54 2.39 2.39	0 of 9
EEDSLRYYYVN	GKNNRPS	SSTDSSGFQVF	ND 3.36 ND	3 of 9 (4.19)
EGDSLRYYYAN	GKNNRPS	SSRDSSGFYWN	2.35 2.15 1.65	0 of 9
EGDSLRLYYAK	GKQNRPS	SSRDSSGFQVF	ND ND ND	1 of 9 (3.43)
EGDSLRYEYAN	GKNNRPS	LSRDSSNFQVF	ND 3.05 ND	4 of 9 (4.62)
PGDSLRYYYAN	GSNNRPS	SSRDSSGFQVF	3.36 3.00 ND	3 of 9 (3.49)
ENDSLRYYYAN	CKNNRPS	SSRFSSGFQVF	ND 5.72 ND	2 of 9 (4.47)
EGDSLRYFYAN	TKNNRPS	SSRDSSIFQVF	5.26 ND 3.99	6 of 9 (3.87)
ESDSYRYYYAN	GKNNRPS	SSRVSSGFQVF	3.89 ND ND	3 of 9 (3.82)
EGDSLRLYDAN	GKNNRPS	SSRDSSGFQVQ	3.05 2.38 3.00	2 of 9 (3.96)
EGDSLRYYYAN	GKNNRPS	RARDSSGFQVF	ND ND 4.22	1 of 9 (3.91)
YGDSLREYYAN	GKANRPS	SSRDSSGFQVF	2.84 2.80 3.16	4 of 9 (4.29)
EGDSLRYYYAN	GKNNRPL	SSRDSKGFQVD	3.19 3.21 2.77	4 of 9 (4.31)
EEDSLRYYYAN	GKNNRPS	RSRDSSGFDVF	ND 5.49 3.35	1 of 9 (3.32)
EGDSLRYGYAN	GKNNRPS	SSRTSSGFQVF	1.22 1.29 0.72	5 of 9 (4.22)
PGDSLRYYYHN	GKNNRPS	SSRDSSKFQVF	ND 5.12 ND	1 of 9 (3.79)
EGDSLRYYYSN	CKNNRPS	SSRDSSGFQSF	ND ND ND	2 of 9 (4.65)
EGDSLRYYYAN	GKNNRPS	PSRASSGFQVG	3.98 ND ND	1 of 9 (4.63)
EGDSLRYYYAN	DKNNRPS	SSRNSCGFQVF	ND ND ND	0 of 9
ECDSLNYYYAN	GKNNRPS	SSRTSSGFQVF	2.85 3.10 3.21	1 of 9 (4.44)
EGDSLRYYYAN	GKNNIPS	SSRDSSPFWVF	2.56 3.41 3.17	2 of 9 (4.44)
EPDSLRYLYAN	GKNNRDS	SSRDSSGFQVF	4.50 ND ND	2 of 9 (3.39)
EGDSIRYYYAN	GKNNRPS	SNRDSSGFTVF	2.83 3.80 3.18	4 of 9 (4.19)
EGDSLRYYYAN	PHNNRPS	SSRDHSGFQVF	3.89 ND 4.48	2 of 9 (4.39)
NGDSLRYYYAN	GKWNRPS	SSRDSSGFTVF	5.51 4.08 2.94	3 of 9 (4.38)
ELDSLRYYYAN	GKNNRPS	SSRDSSGAQVG	3.06 4.29 ND	2 of 9 (4.14)
EYDSLRYYWAN	GKNNRPS	SSRDSSGFQVQ	3.22 3.09 ND	3 of 9 (3.70)
EGDSLRYYLAN	LKNNRPK	SSRDSSGFQVF	ND 4.05 ND	5 of 9 (3.84)
EGDSLEYYYAN	QKNNRPS	SDRDSSGFQVF	4.62 ND ND	2 of 9 (3.84)
EGDRLRYYYAN	GKPNRPA	SSRDSSGFQVF	ND ND ND	3 of 9 (4.66)
EGDSLRSYVAN	GKNCRPS	SSRDSSGFQVF	3.05 4.50 4.35	4 of 9 (4.24)
EGDSLRYYYAN	GKINRPS	SLYDSSGFQVF	3.88 4.83 ND	0 of 9

The first 8 entries again:

CDR-L1,CDR-L2,CDR-L3,"replicates, log10 nM",control signals
EGDSLRYYYAN,GKNNRPS,SSIHCSGFQVF,ND ND ND,0 of 9
EGDSLRYYYAN,GKSNRPS,SSRVSSGTQVF,2.91 2.87 3.56,3 of 9 (4.00)
EGDLLRYYYAN,GKNNRPS,GSRVSSGFQVF,4.40 3.31 ND,3 of 9 (4.12)
EGDSLRYYYAN,GKTNRPS,SSRDSSDFQVF,ND ND ND,1 of 9 (3.67)
EGDSLRYYYAA,GKNNRPS,YSRDSSGFQVQ,3.80 ND 3.26,3 of 9 (3.87)
EGDELRYYYAN,GKNNRPS,SSRDGSIFQVF,ND 4.08 ND,1 of 9 (4.22)
EGDSLRYYYAN,GKNNRSS,SSRDSSGFQVL,3.02 2.51 4.16,3 of 9 (3.42)
EGDSIRYYYAN,GKLNRPS,SSRDSSGFQVK,ND ND ND,1 of 9 (4.32)

For reference, the parent read 2.31 as the reference entry and 2.25 as a member of this library.
Three control strains display no target. For library AAYL52, 28% of the pairings with them gave a signal, with a median of 3.91 and one signal in twenty below 2.90, so weak values seen in few replicates may be background. The control count says in how many pairings with the empty strains this scFv gave a signal, with their mean in brackets.